The values below come from publication PMC8467532, “DYRK1A Kinase Inhibitors Promote β-Cell Survival and Insulin Homeostasis” (Cells, 2021).

The assay deals with INS-1E and MIN6 cells. Description: Ki67 proliferation analysis. Type of assay: cell-based, rat, mouse. Particulars: TGF-β inhibitor alone.

For `c1ccc(-c2n[nH]cc2-c2ccnc3ccccc23)nc1` [LY364947, 4-(3-(2-pyridinyl)-1H-pyrazol-4-yl)-quinoline, reference compound], the “effect on cell proliferation” value is recorded as “did not affect cell proliferation”.
